# Yeast mating assay 1: variants of the scFv Ab-14

From the AlphaSeq antibody data of Engelhart et al. 2022 (doi:10.1038/s41597-022-01779-4), copy in the FLAb collection.

Antigen: PDVDLGDISGINAS, a 14-residue peptide of the SARS-CoV-2 spike HR2 region.

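Phage display of a naive human antibody library on the peptide gave the parent. In library AAYL50, one, two or three CDR residues were substituted; doubles and triples were drawn at random. Affinity was read by AlphaSeq, a pooled yeast mating assay with surface-displayed partners. Binding brings cells together so that they mate, and sequencing counts the barcode pairs among the diploids. Read counts were normalised to the haploid input and turned into Kd by a linear fit to BCL2-family pairs of known affinity, for each replicate. There are three technical replicates.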

Parent: Ab-14, a human scFv built as VH, a (GGGGS)3 linker, VL. Only the CDRs of the light chain vary.
VH: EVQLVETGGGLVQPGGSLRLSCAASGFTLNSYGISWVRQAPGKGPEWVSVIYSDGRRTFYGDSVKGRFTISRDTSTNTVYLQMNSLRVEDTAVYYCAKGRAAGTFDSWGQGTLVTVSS
VL: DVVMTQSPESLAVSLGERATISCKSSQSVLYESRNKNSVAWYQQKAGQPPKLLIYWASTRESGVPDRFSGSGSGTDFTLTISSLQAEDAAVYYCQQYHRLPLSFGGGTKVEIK

Positions count from residue 1 of the parent VL; S62M puts M in place of S. Values are apparent Kd, the geometric mean of the replicates that gave a signal; lower means stronger binding. An entry "not detected" has no value in the source: the pair was not observed among the diploids in any replicate. This suggests poor binding but is not conclusive.

| # | Kd | seen in | control signals | changes |
|---|---|---|---|---|
| 1 | not detected | 0/3 | 0/9 | S62M+L100T+L102W |
| 2 | not detected | 0/3 | 1/9 | L30C+A40F+T59Y |
| 3 | 170 nM | 1/3 | 0/9 | R34L+A57C+R99A |
| 4 | 140 nM | 2/3 | 0/9 | N37A+A57M+Y97N |
| 5 | 19 µM | 1/3 | 2/9 | Q27A+Q95P+Q96V |
| 6 | 13 µM | 2/3 | 3/9 | V29Q+Q96M+L102M |
| 7 | 1.4 µM | 3/3 | 0/9 | N37E+S58H+T59W |
| 8 | 1.7 nM | 3/3 | 1/9 | S26R+W56Q+R99W |
| 9 | 790 nM | 3/3 | 3/9 | S26Y+Q27R+S33P |
| 10 | 230 µM | 2/3 | 4/9 | K36T+V39Q+Y97F |
| 11 | not detected | 0/3 | 0/9 | K36C+T59C+Y97H |
| 12 | 100 nM | 3/3 | 0/9 | K36H+Q96E |
| 13 | 710 nM | 1/3 | 4/9 | V29H+Q95K+L102M |
| 14 | 5.6 µM | 3/3 | 0/9 | K24Q+A57H+L100M |
| 15 | not detected | 0/3 | 1/9 | K36F+S38G+R60G |
| 16 | 3.2 nM | 3/3 | 5/9 | Q27D+V29E |
| 17 | 3.7 nM | 3/3 | 2/9 | W56S+A57D+S62Q |
| 18 | 2.0 nM | 3/3 | 0/9 | S33T+W56E+R60P |
| 19 | 1.6 nM | 3/3 | 7/9 | Y31F+S33V+W56N |
| 20 | 1.7 µM | 2/3 | 1/9 | S25T+E32T+S58W |
| 21 | not detected | 0/3 | 1/9 | S28T+S38G+V39I |
| 22 | 33 nM | 3/3 | 0/9 | K24Y+V29E |
| 23 | 180 nM | 3/3 | 2/9 | K36H+Q95A+Q96S |
| 24 | 30 nM | 3/3 | 1/9 | S25H+S38H+Q95C |
| 25 | not detected | 0/3 | 0/9 | S58C+L102E |
| 26 | 20 nM | 3/3 | 4/9 | S25C+Q96T+H98A |
| 27 | 61 nM | 3/3 | 1/9 | V29F+S62L+S103I |
| 28 | 110 µM | 1/3 | 2/9 | Q27N+A57H+R99D |
| 29 | not detected | 0/3 | 1/9 | S28E+Q95F |
| 30 | 32 µM | 2/3 | 6/9 | N35F+V39W+R60D |
| 31 | 9.9 nM | 3/3 | 0/9 | N35K+W56N+L100F |
| 32 | 400 µM | 1/3 | 2/9 | R60N+Q96T+P101D |
| 33 | not detected | 0/3 | 1/9 | E32N+K36G |
| 34 | not detected | 0/3 | 1/9 | L30D+Y31R+A40T |
| 35 | 62 nM | 3/3 | 0/9 | S28F+E32N+K36C |
| 36 | 64 µM | 1/3 | 2/9 | A57H+Q96V+P101W |
| 37 | not detected | 0/3 | 2/9 | S28A+V39Y+P101H |
| 38 | not detected | 0/3 | 2/9 | Q27F+E32T+P101M |
| 39 | 42 nM | 3/3 | 1/9 | V29F+N37C+H98Q |
| 40 | not detected | 0/3 | 3/9 | Q27F+S28M+W56I |
| 41 | 25 µM | 1/3 | 4/9 | S28K+Y97E |
| 42 | 22 nM | 3/3 | 3/9 | V29I+W56Y+P101F |
| 43 | not detected | 0/3 | 0/9 | E61I+S62L+Y97R |
| 44 | 3.3 µM | 1/3 | 2/9 | Q27P+W56I+S62R |
| 45 | 16 µM | 1/3 | 1/9 | A40D+S58H+L100W |
| 46 | not detected | 0/3 | 2/9 | L30S+A40I+A57L |
| 47 | 490 nM | 2/3 | 0/9 | N37K+S58T+E61D |
| 48 | 2.0 µM | 1/3 | 1/9 | S33V+K36V+A40L |

The 6 strongest on average among those seen in every replicate, once more:

{"changes": "Y31F+S33V+W56N", "Kd": "1.6 nM", "seen in": "3/3", "control signals": "7/9"}
{"changes": "S26R+W56Q+R99W", "Kd": "1.7 nM", "seen in": "3/3", "control signals": "1/9"}
{"changes": "S33T+W56E+R60P", "Kd": "2.0 nM", "seen in": "3/3", "control signals": "0/9"}
{"changes": "Q27D+V29E", "Kd": "3.2 nM", "seen in": "3/3", "control signals": "5/9"}
{"changes": "W56S+A57D+S62Q", "Kd": "3.7 nM", "seen in": "3/3", "control signals": "2/9"}
{"changes": "N35K+W56N+L100F", "Kd": "9.9 nM", "seen in": "3/3", "control signals": "0/9"}

Nonspecific signal, from three strains lacking the peptide, appeared in 18% of pairings of library AAYL50, centred on 15 µM (5% of these signals below 970 nM); values are not corrected for it. Also given: how often the same scFv was detected with the empty control strains. For reference, the parent read 4.4 nM as the reference entry and 48 nM as a member of this library.